System: Aβ 1-40

Substance: recombinant p34-cdc2/cyclin B1 (Promega)
- Michaelis constant (KM) for the phosphorylation: 5.2 µM

Reference: US20040072753
